This note sets out measurements from ChEMBL document CHEMBL2203210, “SAR and in vivo evaluation of 4-aryl-2-aminoalkylpyrimidines as potent and selective Janus kinase 2 (JAK2) inhibitors” (Bioorg Med Chem Lett, 2012).

By UniProt entry, the sequences of proteins in these tests, tags left out. Where a name states a change or a piece, a line headed by the entry shows the natural chain unless it says otherwise.
UniProt O60674: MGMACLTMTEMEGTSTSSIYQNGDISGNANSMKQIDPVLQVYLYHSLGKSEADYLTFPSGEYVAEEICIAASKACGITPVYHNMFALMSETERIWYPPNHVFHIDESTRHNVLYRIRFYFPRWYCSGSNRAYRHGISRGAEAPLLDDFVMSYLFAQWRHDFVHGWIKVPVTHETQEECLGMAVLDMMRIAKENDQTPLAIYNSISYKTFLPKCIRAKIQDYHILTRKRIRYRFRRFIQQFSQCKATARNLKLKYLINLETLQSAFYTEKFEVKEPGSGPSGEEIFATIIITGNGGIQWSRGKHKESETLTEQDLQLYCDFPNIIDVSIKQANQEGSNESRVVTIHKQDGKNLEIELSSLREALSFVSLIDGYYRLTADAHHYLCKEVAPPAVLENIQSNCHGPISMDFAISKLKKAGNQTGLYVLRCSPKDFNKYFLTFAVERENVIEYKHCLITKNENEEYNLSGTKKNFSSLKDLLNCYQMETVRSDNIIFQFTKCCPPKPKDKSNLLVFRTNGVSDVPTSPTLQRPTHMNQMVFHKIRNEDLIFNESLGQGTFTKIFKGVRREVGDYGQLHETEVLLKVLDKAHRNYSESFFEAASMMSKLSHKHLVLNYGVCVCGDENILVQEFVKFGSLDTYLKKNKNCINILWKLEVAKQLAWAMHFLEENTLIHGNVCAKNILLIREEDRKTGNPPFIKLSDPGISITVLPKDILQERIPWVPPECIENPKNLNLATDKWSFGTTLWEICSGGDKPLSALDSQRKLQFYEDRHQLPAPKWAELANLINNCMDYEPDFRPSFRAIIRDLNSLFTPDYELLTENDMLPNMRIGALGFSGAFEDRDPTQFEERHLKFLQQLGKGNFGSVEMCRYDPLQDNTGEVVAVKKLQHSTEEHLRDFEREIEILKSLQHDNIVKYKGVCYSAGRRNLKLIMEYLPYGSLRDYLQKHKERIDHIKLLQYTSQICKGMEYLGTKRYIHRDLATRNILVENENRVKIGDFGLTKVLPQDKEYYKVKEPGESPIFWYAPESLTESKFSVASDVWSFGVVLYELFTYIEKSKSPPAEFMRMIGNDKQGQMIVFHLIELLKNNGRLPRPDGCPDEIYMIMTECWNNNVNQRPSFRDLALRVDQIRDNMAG

For this test, the target named is Tyrosine-protein kinase JAK2 (Homo sapiens, UniProt O60674).

As usually defined, the IC50 is the concentration needed to halve the response being measured. Read a low IC50 as higher potency. Molecule `CC(=O)Nc1ccc(-c2ccnc(Nc3ccc(N4CCOCC4)cc3)n2)cc1` returned an IC50 of 3.6 nM.
